Tested on: SOD1^G93A mice
Settings: riluzole 16 mg/kg intraperitoneally once a day from age 10 weeks until death, mean ± SE

Compound: Nc1nc2ccc(OC(F)(F)F)cc2s1 [Riluzole]
- Survival period: 134 ± 3 (6) day
